The source of these data is PubChem BioAssay AID696 (Sanford-Burnham Center for Chemical Genomics, 2007).

Chains of the proteins cited; added tags and fusions are not shown.
UniProt P05187, whole entry: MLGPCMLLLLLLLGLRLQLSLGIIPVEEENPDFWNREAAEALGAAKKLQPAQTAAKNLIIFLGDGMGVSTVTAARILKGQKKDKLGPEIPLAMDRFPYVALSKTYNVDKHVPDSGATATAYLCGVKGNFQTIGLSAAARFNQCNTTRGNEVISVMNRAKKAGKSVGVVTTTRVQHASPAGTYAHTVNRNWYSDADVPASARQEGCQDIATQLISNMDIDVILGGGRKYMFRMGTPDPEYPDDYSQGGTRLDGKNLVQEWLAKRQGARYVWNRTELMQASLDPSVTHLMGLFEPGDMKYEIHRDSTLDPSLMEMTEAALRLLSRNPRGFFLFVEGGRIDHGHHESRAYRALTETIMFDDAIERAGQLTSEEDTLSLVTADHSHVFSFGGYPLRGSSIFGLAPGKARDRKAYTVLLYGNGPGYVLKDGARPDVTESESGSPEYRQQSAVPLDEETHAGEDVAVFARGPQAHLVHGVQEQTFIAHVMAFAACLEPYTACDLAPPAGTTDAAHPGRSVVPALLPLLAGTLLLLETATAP

SMILES strings stand for the structures. The list shows a part of the results, in another mix than the full data. Calls of active or inactive are those of the source. Rule as the data show it: active = activation fold above about 2; inactive = the rest.

For this experiment, the target named is Alkaline phosphatase, placental type (Homo sapiens) (UniProt P05187). Kind of experiment: PLAP enzyme activators, biochemical, luminescence, HTS (AID 696). As to conditions: purified PLAP enzyme, luminescent substrate read-out; at 20 µM; active compounds read high.
`O=C(NCC1(N2CCOCC2)CCCCC1)c1cc2ccccc2o1`: the activation fold is inactive: 1.

Consider `O=C(OC1CN2CCC1CC2)C1c2ccccc2Oc2ccccc21` (stereo not given), for which the activation fold was inactive: 1.3.

With `COc1ccc(NC2CCN(CCc3ccccc3)CC2)c(OC)c1`, the activation fold is inactive: 1.6.

Turning to `N#CC1(Nc2ccccc2)CCN(CCc2ccccc2)CC1`, the activation fold was inactive: 1.2.

On to `O=C(NCC1(N2CCOCC2)CCCCC1)c1cc(=O)[nH]c2ccccc12`, for which the activation fold was inactive: 1.4.

Regarding `N/C(=N\O)c1c(N)no[n+]1[O-]`, the activation fold is inactive: 0.9.

Turning to `c1ccc(CN2CCC(Nc3ccccc3)CC2)cc1`, the activation fold is inactive: 1.7.

On to `Fc1ccccc1NC1CCN(Cc2ccccc2)CC1`, for which the activation fold was inactive: 1.6.

Consider `CCOc1ncccc1C(=O)NCC1(N2CCOCC2)CCCCC1`, for which the activation fold was inactive: 1.4.

Turning to `CCC(CO)(C(=O)OC1CN2CCC1CC2)c1ccccc1` (stereo not given), the activation fold is inactive: 1.1.
